From patent EP4821924A1, “FUSED RING MAT2A INHIBITOR, AND PHARMACEUTICAL COMPOSITION CONTAINING SAME AND USE THEREOF” (dated 2026)
Each block holds one molecule with its values, some of them ahead of it.

Protein sequences, listed by entry. Tags and fused reporters are not part of them.
UniProt P31153, whole entry: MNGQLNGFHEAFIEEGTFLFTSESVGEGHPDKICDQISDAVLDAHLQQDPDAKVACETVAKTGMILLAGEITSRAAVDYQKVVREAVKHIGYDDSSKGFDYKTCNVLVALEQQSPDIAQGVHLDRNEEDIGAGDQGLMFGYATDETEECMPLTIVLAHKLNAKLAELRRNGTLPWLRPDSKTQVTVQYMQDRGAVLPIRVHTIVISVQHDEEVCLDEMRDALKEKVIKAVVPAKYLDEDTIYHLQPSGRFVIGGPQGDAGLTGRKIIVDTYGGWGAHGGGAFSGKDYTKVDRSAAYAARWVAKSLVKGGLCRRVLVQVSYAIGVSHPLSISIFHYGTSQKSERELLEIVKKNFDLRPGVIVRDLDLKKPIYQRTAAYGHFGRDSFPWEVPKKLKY

Assays:
[1] = tested on: HCT116 MTAP^-/- cells; experiment: Proliferation inhibition, CellTiter-Glo, HCT116 MTAP^-/- cells; settings: read-out: IC50 (nM) HCT116 MTAP^-/-, 120 hours
Text: (§1) These two cell lines are used to determine whether compounds display MTA-synergistic inhibitory activity.
(§2) Experimental Materials: HCT116 MTAP^-/- and HCT116 MTAP^WT cells were purchased from Horizon; CellTiter-Glo reagent was purchased from Promega (Cat. No. G7571); RPMI-1640 was purchased from ATCC (Cat. No. 30-2001); fetal bovine serum (FBS) was purchased from EXCELL (Cat. No. FND500); penicillin-streptomycin was purchased from Gibco (Cat. No. 15140-122); 0.25% trypsin-ethylenediaminetetraacetic acid digestion solution (Trypsin-EDTA) was purchased from Gibco (Cat. No. 25200-072); dimethyl sulfoxide (DMSO) was purchased from Sigma (Cat. No. D2650); 96-well plates were purchased from Corning (Cat. No. 3610); the incubator was purchased from NuAire (Model NU-5700E); the inverted microscope was purchased from Nikon (Model TS-100); the automated cell counter was purchased from Life Technologies (Model Countess II); the microplate reader was purchased from PerkinElmer (Model Envision); the data analysis software was GraphPad Prism 5.0.
Experimental Method: HCT116 MTAP^-/- or HCT116 MTAP^WT cells in logarithmic growth phase were resuspended in growth medium (RPMI-1640 + 10% FBS) and diluted to the target density (5000/mL). The cell suspension was seeded into 96-well plates at 100 µL per well, and the plates were incubated overnight at 37 °C in a 5% CO2 incubator. Medium alone served as the background control group. The cells were starved with 80 µL of serum-free medium for 4 hours. The test compounds were dissolved in DMSO to prepare a 10 mmol/L stock solution. The stock solution was first diluted to 2 mmol/L (200×) with DMSO, then serially diluted 3-fold over a total of 10 concentrations. From each concentration, 3 µL of the above solution was diluted with 297 µL of growth medium (2×). Then 80 µL/well was added to the 96-well plates containing seeded cells. The cells with added test compounds were incubated at 37 °C in a 5% CO2 incubator for 120 hours. The 96-well plates were equilibrated at room temperature, and 40 µL of CellTiter-Glo reagent was added to each well, mixed on a vortex for 2 minutes, and incubated at room temperature for 60 minutes. The luminescence was read on an EnVision microplate reader, and the IC50 values of the compounds were calculated using GraphPad Prism 5.0 software.

[2] = target: MAT2A (Homo sapiens, UniProt P31153); experiment: MAT2A enzyme inhibition assay (phosphate detection with BIOMOL Green, OD620); settings: read-out: MAT2A IC50; 150 minutes reaction, substrates L-methionine and ATP
Text: Experimental Principle: MAT2A catalyzes the reaction of L-methionine and ATP to produce S-adenosyl methionine (SAM) and phosphate. The phosphate can be detected by formation of malachite green phosphomolybdate with sulfuric acid and ammonium molybdate.
Experimental Materials: MAT2A enzyme was purchased from BPS (Cat. No. 71401-1); tris(hydroxymethyl)aminomethane (Tris) was purchased from Life Science (Cat. No. 0497); bovine serum albumin (BSA) was purchased from Sigma (Cat. No. V900933); L-methionine was purchased from Adams (Cat. No. 1100469); ATP was purchased from Sigma (Cat. No. A7699); magnesium chloride was purchased from Sigma (Cat. No. M8266); potassium chloride was purchased from Sigma (Cat. No. 7447-40-7); polyoxyethylene lauryl ether (Brij35) was purchased from Sigma (Cat. No. B4184); ethylenediaminetetraacetic acid (EDTA) was purchased from Sigma (Cat. No. M1644); dimethyl sulfoxide (DMSO) was purchased from Sigma (Cat. No. D2650); BIOMOL® Green was purchased from Enzo (Cat. No. BML-AK111-0250); 384-well plates were purchased from Corning (Cat. No. 3765); the centrifuge was purchased from Eppendorf (Model 5430); the microplate reader was purchased from BioTek (Model Synergy 2); the pipettor was purchased from Labcyte (Model Echo 550).
Experimental Method: A buffer was prepared with the following components: 50 mM Tris, pH 7.5 / 50 mM potassium chloride / 10 mM magnesium chloride / 0.01% Brij-35 / 1 mM EDTA / 0.1% BSA. The final concentration of test compounds started at 10 µM, with 3 -fold serial dilution over 10 concentrations, tested in duplicate wells. In a 384-well plate, gradient dilutions were prepared as 10 solutions at 100× final concentration. Then 250 nL was transferred using an Echo 550 to a 384-well reaction plate for subsequent use. Negative control wells and positive control wells received 250 nL of 100% DMSO each. A 1.67× final concentration MAT2A enzyme solution was prepared in buffer. […] OD620 was read and the data analyzed.

[3] = tested on: THP-1; experiment: Proliferation inhibition of tumor cells, 10 days, THP-1; settings: THP-1, MTAP Deletion, LAML, 3D culture, day 10
Text: (§3) Experimental Principle: The human tumor cell lines HCC15, NCI-H2052, LN18, NCI-H838, LU99, DOHH2, HT-1080, MKN45, THP-1, MCF7, MIA PaCa-2, U87-MG, and UMUC3 are all MTAP gene-deleted cell lines. NCI-H1944, ASPC-1, U251, and HT-1376 are MTAP gene wild-type cell lines. […]
(§4) Experimental Method: Each of the above cell lines in logarithmic growth phase was resuspended in growth medium and diluted to an appropriate density (approximately 6250/mL). […] The 96-well plates were equilibrated at room temperature, and 100 µL of detection reagent (Luminescent Cell Viability Detection) or 25 µL of CellTiter-Glo reagent was added to each well; after incubation at room temperature for 10 minutes, the luminescence was read on an EnVision microplate reader, and the IC50 values of the compounds were calculated using GraphPad Prism 8.0 software. […]

[4] = tested on: LU99; experiment: Proliferation inhibition of tumor cells, 10 days, LU99; settings: LU99, MTAP Deletion, LCLC, 3D culture, day 10
Text: as §3, §4

[5] = tested on: NCI-H2052; experiment: Proliferation inhibition of tumor cells, 10 days, NCI-H2052; settings: NCI-H2052, MTAP Deletion, MESO, 3D culture, day 10
Text: as §3, §4

[6] = tested on: DOHH2; experiment: Proliferation inhibition of tumor cells, 10 days, DOHH2; settings: DOHH2, MTAP Deletion, BCL, 3D culture, day 10
Text: as §3, §4

[7] = tested on: HCT116 MTAP^WT cells; experiment: Proliferation inhibition, CellTiter-Glo, HCT116 MTAP^WT cells; settings: read-out: IC50 (nM) HCT116 MTAP^WT, 120 hours
Text: as §1, §2
Experimental Method: HCT116 MTAP^-/- or HCT116 MTAP^WT cells in logarithmic growth phase were resuspended in growth medium (RPMI-1640 + 10% FBS) and diluted to the target density (5000/mL). […] The luminescence was read on an EnVision microplate reader, and the IC50 values of the compounds were calculated using GraphPad Prism 5.0 software.

[8] = tested on: U87MG; experiment: Proliferation inhibition of tumor cells, 10 days, U87MG; settings: MTAP Deletion, GBM, 3D culture, day 10
Text: as §3, §4

[9] = tested on: HCC15; experiment: Proliferation inhibition of tumor cells, 10 days, HCC15; settings: HCC15, MTAP Deletion, NSCLC, 3D culture, day 10
Text: as §3, §4

[10] = tested on: U251; experiment: Proliferation inhibition of tumor cells, 10 days, U251; settings: U251, MTAP WT, GBM, 3D culture, day 10
Text: as §3, §4

[11] = tested on: ASPC-1; experiment: Proliferation inhibition of tumor cells, 10 days, ASPC-1; settings: ASPC-1, MTAP WT, PDAC, 3D culture, day 10
Text: as §3, §4

[12] = tested on: NCI-H838; experiment: Proliferation inhibition of tumor cells, 10 days, NCI-H838; settings: NCI-H838, MTAP Deletion, LUAD, 2D culture, day 10
Text: as §3, §4

[13] = tested on: MCF7; experiment: Proliferation inhibition of tumor cells, 10 days, MCF7; settings: MCF7, MTAP Deletion, BRCA, 3D culture, day 10
Text: as §3, §4

[14] = tested on: HT-1080; experiment: Proliferation inhibition of tumor cells, 10 days, HT-1080; settings: HT-1080, MTAP Deletion, SARC, 3D culture, day 10
Text: as §3, §4

[15] = tested on: MKN45; experiment: Proliferation inhibition of tumor cells, 10 days, MKN45; settings: MKN45, MTAP Deletion, STAD, 3D culture, day 10
Text: as §3, §4

[16] = tested on: NCI-H1944; experiment: Proliferation inhibition of tumor cells, 10 days, NCI-H1944; settings: NCI-H1944, MTAP WT, LUAD, 3D culture, day 10
Text: as §3, §4

[17] = tested on: Mia Paca2; experiment: Proliferation inhibition of tumor cells, 10 days, Mia Paca2; settings: Mia Paca2, MTAP Deletion, PDAC, 3D culture, day 10
Text: as §3, §4

[18] = tested on: LN18; experiment: Proliferation inhibition of tumor cells, 10 days, LN18; settings: LN18, MTAP Deletion, GBM, 3D culture, day 10
Text: as §3, §4

Structure (SMILES): [2H]C([2H])([2H])Nc1nnc(-c2cccnc2C)c2cc(C(F)(F)F)ccc12
IC50 [1]: 100 to 1000 nM

Structure (SMILES): CNc1nnc(-c2cccnc2C)c2cc(C(F)(F)F)ccc12
IC50 [2]: < 200 nM
IC50 [1]: 100 to 1000 nM

Structure (SMILES): Cc1ncccc1-c1nnc(N)c2ccc(C3CC3)c(F)c12
IC50 [1]: 100 to 1000 nM

The remaining lines, values ahead:

IC50 [1]: 100 to 1000 nM
Structure (SMILES): Cc1nccc(F)c1-c1nnc(N)c2ccc(C(F)(F)F)cc12

IC50 [2]: < 200 nM
IC50 [1]: < 100 nM
Structure (SMILES): Cc1ncccc1-c1nnc(N)c2ccc(C(F)(F)F)c(F)c12

IC50 [3]: 100 to 1000 nM
IC50 [4]: 100 to 1000 nM
IC50 [2]: < 200 nM
IC50 [5]: < 100 nM
IC50 [6]: 100 to 1000 nM
IC50 [7]: > 10000 nM
IC50 [8]: 1 to 10 µM
IC50 [9]: 100 to 1000 nM
IC50 [10]: > 10 µM
IC50 [11]: > 10 µM
IC50 [12]: < 100 nM
IC50 [13]: 100 to 1000 nM
IC50 [14]: 100 to 1000 nM
IC50 [1]: < 100 nM
IC50 [15]: 100 to 1000 nM
IC50 [16]: 1 to 10 µM
IC50 [17]: 1 to 10 µM
IC50 [18]: 100 to 1000 nM
Structure (SMILES): Cc1ncccc1-c1nnc(N)c2ccc(C(F)(F)F)cc12
